The results in this text go back to patent US5633345A, “Cyclic peptides” (priority 1992, dated 1997).

The conditions of this series: mouse, in vivo, ip, 100 mg/kg.
“cyclo(L-RONva-L-MeVal-L-Leu-L-βHOMeVal-D-Hmp-L-MeVal-L-Phe-L-MePhe-L- Pro) (R: n-hexanoyl) [Compound 37]”: the toxicity signs entry was “no toxicity signs”.

Turning to “cyclo(L-GluOR-L-MeVal-L-Leu-L-βHOMeVal-D-Hmp-L-MeVal-L-Phe-L-MePhe-L- Pro) (R: n-octyl) [Compound 32]”, the toxicity signs entry is recorded as “no toxicity signs”.

Take “cyclo(L-aIle-L-ROMeNva-L-Leu-L-βHOMeVal-D-Hmp-L-MeVal-L-Phe-L-MePhe-L-Pro) (R: Bzl) [Compound 27]”: the toxicity signs entry is listed as “no toxicity signs”.

In the case of “cyclo(L-GluOR-L-MeVal-L-Leu-L-βHOMeVal-D-Hmp-L-MeVal-L-Phe-L-MePhe-L- Pro) (R: n-hexyl) [Compound 31]”, the toxicity signs result is recorded as “no toxicity signs”.

Regarding “cyclo(L-GluOR-L-MeVal-L-Leu-L-βHOMeVal-D-Hmp-L-MeVal-L-Phe-L-MePhe-L- Pro) (R: n-decyl) [Compound 33]”, the toxicity signs entry is listed as “no toxicity signs”.

In the case of “cyclo(L-aIle-L-MeVal-L-GluOR-L-βHOMeVal-D-Hmp-L-MeVal-L-Phe-L-MePhe-L-Pro) (R: cHex) [Compound 38]”, the toxicity signs entry was “no toxicity signs”.
